Measurements: patent US20220062240A1, “METHODS OF TREATING CANCER USING A CLK INHIBITOR” (BioSplice Therapeutics, Inc., priority 2018, published 2022)
Like-named read-outs stand apart in the source and are kept apart here.

The chains behind the UniProt entries cited, without tags or fusion partners. Where a name states a change or a piece, a line headed by the entry shows the natural chain unless it says otherwise.
UniProt O43781: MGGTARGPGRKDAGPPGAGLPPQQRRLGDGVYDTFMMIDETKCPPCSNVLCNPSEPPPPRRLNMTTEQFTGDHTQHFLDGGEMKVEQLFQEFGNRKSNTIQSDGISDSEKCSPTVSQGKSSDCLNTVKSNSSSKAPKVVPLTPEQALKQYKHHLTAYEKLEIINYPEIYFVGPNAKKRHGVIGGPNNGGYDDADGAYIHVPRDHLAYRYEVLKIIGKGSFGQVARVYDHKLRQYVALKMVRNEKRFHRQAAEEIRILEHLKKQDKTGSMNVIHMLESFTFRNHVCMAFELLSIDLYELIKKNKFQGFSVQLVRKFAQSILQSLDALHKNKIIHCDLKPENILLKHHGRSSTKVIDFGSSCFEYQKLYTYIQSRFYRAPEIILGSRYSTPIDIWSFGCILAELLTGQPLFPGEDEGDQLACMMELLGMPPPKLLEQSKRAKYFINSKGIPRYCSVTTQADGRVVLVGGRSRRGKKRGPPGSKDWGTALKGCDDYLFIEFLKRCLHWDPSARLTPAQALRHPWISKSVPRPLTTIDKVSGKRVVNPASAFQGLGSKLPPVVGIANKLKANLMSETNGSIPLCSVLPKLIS
UniProt Q92630: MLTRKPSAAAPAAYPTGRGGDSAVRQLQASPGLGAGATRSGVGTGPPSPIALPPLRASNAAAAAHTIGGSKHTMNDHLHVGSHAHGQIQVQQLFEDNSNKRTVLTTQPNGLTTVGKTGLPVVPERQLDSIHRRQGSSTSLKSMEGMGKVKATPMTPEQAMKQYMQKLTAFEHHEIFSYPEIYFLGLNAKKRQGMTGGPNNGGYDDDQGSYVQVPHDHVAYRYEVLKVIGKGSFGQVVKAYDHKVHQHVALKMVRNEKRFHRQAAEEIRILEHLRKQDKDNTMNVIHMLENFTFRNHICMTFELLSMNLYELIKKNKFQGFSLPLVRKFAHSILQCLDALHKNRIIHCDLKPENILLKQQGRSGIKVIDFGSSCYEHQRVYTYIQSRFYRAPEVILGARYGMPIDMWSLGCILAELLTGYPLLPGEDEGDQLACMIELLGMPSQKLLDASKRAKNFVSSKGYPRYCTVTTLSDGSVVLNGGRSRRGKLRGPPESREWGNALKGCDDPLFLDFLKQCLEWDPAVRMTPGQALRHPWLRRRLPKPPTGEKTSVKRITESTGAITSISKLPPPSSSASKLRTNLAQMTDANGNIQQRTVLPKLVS
UniProt Q9NR20: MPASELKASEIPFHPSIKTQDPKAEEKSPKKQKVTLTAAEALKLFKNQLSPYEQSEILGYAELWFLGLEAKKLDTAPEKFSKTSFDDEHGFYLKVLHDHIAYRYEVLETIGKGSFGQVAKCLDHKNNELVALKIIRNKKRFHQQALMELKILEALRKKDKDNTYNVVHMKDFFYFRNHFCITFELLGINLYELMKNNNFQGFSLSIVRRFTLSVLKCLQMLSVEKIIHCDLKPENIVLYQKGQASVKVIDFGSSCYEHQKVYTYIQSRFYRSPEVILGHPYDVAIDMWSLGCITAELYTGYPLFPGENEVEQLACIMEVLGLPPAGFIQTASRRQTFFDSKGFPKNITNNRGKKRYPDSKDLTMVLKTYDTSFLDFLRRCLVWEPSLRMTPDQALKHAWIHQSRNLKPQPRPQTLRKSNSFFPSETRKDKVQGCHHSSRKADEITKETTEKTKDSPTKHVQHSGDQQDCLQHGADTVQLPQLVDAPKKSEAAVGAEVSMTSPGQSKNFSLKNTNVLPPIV

Legend:
[1] = test system: all 50 cell lines; assay: CellTiter-Glo Viability Assay, average across all cell lines; assay type: cell-based; settings: Homo sapiens, read-out: average EC50 for inhibition of cancer cell proliferation
[2] = biological target: DYRK3 (Homo sapiens, UniProt O43781); assay: biochemical
[3] = test system: SNU-16; assay: cells; settings: Homo sapiens, SNU-16, 96 h
[4] = biological target: DYRK2 (Homo sapiens, UniProt Q92630); assay: biochemical
[5] = biological target: DYRK4 (Homo sapiens, UniProt Q9NR20); assay: biochemical
[6] = test system: SW480 colorectal cancer cells; assay: Gene expression qRT-PCR in SW480 cells; assay type: cell-based; settings: Homo sapiens, SW480, 24 h

SMILES | EC50 [1] [nM] | IC50 [2] [nM] | EC50 [3] [nM] | IC50 [4] [nM] | IC50 [5] [nM] | fold induction at 3 µM ([6]; read-out: gene expression fold change CLK1) | fold induction at 3 µM ([6]; read-out: gene expression fold change CLK2) | fold induction at 3 µM ([6]; read-out: gene expression fold change CLK3) | fold induction at 3 µM ([6]; read-out: gene expression fold change DVL2) | fold induction at 3 µM ([6]; read-out: gene expression fold change LRP5) | fold induction at 3 µM ([6]; read-out: gene expression fold change SRSF1) | fold induction at 3 µM ([6]; read-out: gene expression fold change SRSF3) | fold induction at 3 µM ([6]; read-out: gene expression fold change SRSF4) | fold induction at 3 µM ([6]; read-out: gene expression fold change SRSF5) | fold induction at 3 µM ([6]; read-out: gene expression fold change TCF7) | fold induction at 3 µM ([6]; read-out: gene expression fold change TCF7L2)
CNC(=O)c1ccc(-c2c[nH]c3nc(Nc4ccc(C(=O)NC)cc4OC)nc(OC4CCCC4)c23)cc1 [Compound 10] | 332 | – | – | – | – | – | – | – | – | – | – | – | – | – | – | –
CN1CCN(c2cc(C(=O)Nc3cc4cc(-c5cnn(C)c5)ccc4cn3)ccn2)CC1 [Compound 12] | 257 | 8 | 109 | 3 | 13 | – | – | – | – | – | – | – | – | – | – | –
Cc1ccc([N+](=O)[O-])cc1S(=O)(=O)N(C)/N=C/c1cnc2ccc(Br)cn12 [Compound 26] | – | – | – | – | – | 0.02 | 0.05 | 0.02 | 0.06 | 0.15 | 0.16 | 0.04 | 0.02 | 0.09 | 0.37 | 0.09
